Test results published in publication PMC3583384 (Journal of medicinal chemistry, 2012).
Like-named read-outs stand apart in the source and are kept apart here.

Assays:
[1] = tested on: rats with normal iron stores; details: rats po 237 µmol/kg/dose b.i.d. (474 µmol/kg/d), planned 7 d, n = 5
[2] = tested on: rats with normal iron stores; details: rat, in vivo, po; cited from earlier work

SMILES	survival of the dosing period [1]	survival of the dosing period [2]
COCCOCCOc1cnc(C2=N[C@@](C)(C(=O)[O-])CS2)c(O)c1.[Na+] [Compound 8, (S)-4,5-dihydro-2-[3-hydroxy-5-(3,6-dioxaheptyloxy)-2-pyridinyl]-4-methyl-4-thiazolecarboxylic acid]	All of the animals survived the drug dosing regimen	
C[C@]1(C(=O)[O-])CSC(c2ccc(O)cc2O)=N1.[Na+] [Compound 3, (S)-2-(2,4-dihydroxyphenyl)-4,5-dihydro-4-methyl-4-thiazolecarboxylic acid]		all of the treated rats (n = 3) survived
C[C@]1(C(=O)[O-])CSC(c2ncccc2O)=N1.[Na+] [Compound 1, (S)-4,5-dihydro-2-(3-hydroxy-2-pyridinyl)-4-methyl-4-thiazolecarboxylic acid]	None of the 1-treated rats (n = 5) survived the planned 7-d exposure	
COCCOCCOc1ccnc(C2=N[C@@](C)(C(=O)[O-])CS2)c1O.[Na+] [Compound 10, (S)-4,5-dihydro-2-[3-hydroxy-4-(3,6-dioxaheptyloxy)-2-pyridinyl]-4-methyl-4-thiazolecarboxylic acid]	All of the animals survived the drug dosing regimen	
C[C@]1(C(=O)[O-])CSC(c2ncc(O)cc2O)=N1.[Na+] [Compound 6, (S)-4,5-dihydro-2-(3,5-dihydroxy-2-pyridinyl)-4-methyl-4-thiazolecarboxylic acid]	survived the full 7 d of treatment	
